Usually IC50 stands for the concentration needed to halve the response being measured.

The chains behind the UniProt entries cited, without tags or fusion partners.
UniProt P32929, whole entry, looked up: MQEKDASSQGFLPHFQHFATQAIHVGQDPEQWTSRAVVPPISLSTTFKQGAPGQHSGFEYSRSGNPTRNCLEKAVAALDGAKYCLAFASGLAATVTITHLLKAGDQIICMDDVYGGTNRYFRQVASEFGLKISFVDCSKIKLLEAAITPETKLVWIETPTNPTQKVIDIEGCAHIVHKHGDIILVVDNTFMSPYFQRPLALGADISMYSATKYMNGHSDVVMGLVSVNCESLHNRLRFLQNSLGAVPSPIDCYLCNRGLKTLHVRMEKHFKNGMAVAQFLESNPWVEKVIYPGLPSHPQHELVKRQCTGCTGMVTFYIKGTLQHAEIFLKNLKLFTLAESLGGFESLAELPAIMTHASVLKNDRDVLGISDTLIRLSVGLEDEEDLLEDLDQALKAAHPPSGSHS

This is an account of results in patent US20150202186A1, “CYSTATHIONINE-(gamma)-LYASE (CSE) INHIBITORS FOR TREATING PAIN” (SOVA PHARMACEUTICALS, INC., priority 2014, published 2015).

This test addresses recombinant CSE (cystathionine-γ-lyase) (UniProt P32929). The experiment in a line: CSE In Vitro Assay. Particulars: recombinant CSE 20 ug/ml, 50 uM PLP, DL-Homocysteine substrate, 3 hours at 37° C., absorbance at 671 nm.

In the case of `NN(CCCc1nnn[nH]1)c1nnn[nH]1`, the half-maximal inhibitory concentration (IC50) lay in the range of 25 to 100 µM.
